Experimental data published in patent publication US20180256673A1, “METHODS FOR TREATING FUNGAL INFECTIONS” (priority 2015, published 2018).
Starred links: 1 amine or outer side, 2 acyl side, 3 side chain; linkers in the order of their positions; H or OH if unused. Positions of bridges follow the written chain, without caps; N, C: chain ends. Non-standard residues stand in square brackets, D forms with d. Residues, ends and D or L forms follow the SMILES beside them. *: point of attachment. Orn(4R-OH,5R-OCH2CH2NMe3+) = C[N+](C)(C)CCO[C@@H](N[*:3])[C@H](O)C[C@H](N[*:1])C(=O)[*:2]; pTerphenylCO(4''-OnC5H11) = CCCCCOc1ccc(-c2ccc(-c3ccc(C(=O)*)cc3)cc2)cc1; hTyr(3S-OH,4S-OH) = N[C@H](C(=O)O)[C@H](O)[C@@H](O)c1ccc(O)cc1; Pro(3S-OH,4S-Me) = C[C@H]1CN[C@H](C(=O)O)[C@H]1O; Hyp = O=C(O)[C@@H]1C[C@@H](O)CN1

System: C. albicans ATCC 90028 (FKS WT) and DPL22 (fks/FKS mutant S645P/S)
Assay: Invasive candidiasis model in neutropenic BALB/c mice, kidney burden
Conditions: P<0.05

For `CCCCCOc1ccc(-c2ccc(-c3ccc(C(=O)N[C@H]4C[C@@H](O)[C@@H](OCC[N+](C)(C)C)NC(=O)[C@@H]5[C@@H](O)[C@@H](C)CN5C(=O)[C@H]([C@@H](C)O)NC(=O)[C@H]([C@H](O)[C@@H](O)c5ccc(O)cc5)NC(=O)[C@@H]5C[C@@H](O)CN5C(=O)[C@H]([C@@H](C)O)NC4=O)cc3)cc2)cc1` [Compound 1] ({pTerphenylCO(4''-OnC5H11)}-[Orn(4R-OH,5R-OCH2CH2NMe3+)]T[Hyp][hTyr(3S-OH,4S-OH)]T[Pro(3S-OH,4S-Me)]; lactam 1-C), which “reduction of kidney burdens compared to vehicle control” value (DPL22 infected mice, 24 h post-inoculation) is on record?
Its value is “over 2 logs”.

What about the “kidney burden versus vehicle” value (wild-type and fks/FKS mutant strains, 20, 40, 60 mg/kg single IP dose, 24 h and 48 h post-inoculation) of the same molecule?
Its value is “significant kidney burden reduction”.
